ClpP mod – qHTS Assay for Activators of ClpP; purified B. subtilis ClpP, FRET peptide cleavage, 20 min; Potency, µM (titrated, usually from 57.5 µM), for inactives: at the top dose activity change, negative = active; 340,000 compounds, 1.9% hits; AID 651965, 2013; active = well fitted falling curve with a large enough effect; inconclusive = small, poorly fitted or top-dose-only effect; inactive = no such curve, though single readings can be large or run the other way; note: potency is the fitted concentration of half-maximal effect; the source files actives as falling curves though it sought activators and does not explain the sign; nearly all actives have a fitted effect of over 65% in size
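Buffer: 100 mM Tris/HCl pH8, 100 mM KCl, 0.05% low protease BSA, 2.5% glycerol, 0.01% Tween-20. ClpP 10 microg/mL final; 20 min RT; delta FRET normalized to ADEP and DMSO controls.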
A549 viability – counter-screen for Nrf2 inhibitors: cytotoxicity in A549 cells; A549 ARE-Fluc cells, CellTiter-Fluor viability, 18-24 h; Potency, µM (doses to about 46 µM), inactives show top-dose activity change, negative = cytotoxicity, hits mostly inhibitors; 390,000 compounds, 0.16% hits; note: potency is the fitted concentration of half-maximal effect; % is set by controls: 0 for no effect and ±100 for the full control effect
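Cytotoxicity counterscreen: CellTiter-Fluor fluorescence was measured in A549 ARE_Fluc cells after 18-24 h of compound exposure in a concentration series. The subsequent BugLite luminescent read reports ARE-luciferase activity.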
Nrf2 block – inhibitors of Nrf2 signaling | A549 ARE-Fluc reporter, luciferase luminescence, 18-24 h | Potency, µM (doses to about 46 µM), inactives show top-dose activity change, negative = inhibition, actives largely listed as inhibitors | 360,000 compounds, 2.1% hits | AID 504444; note: potency is the fitted concentration of half-maximal effect; % is set by controls: 0 for no effect and ±100 for the full control effect; nearly all actives have a fitted effect of over 60% in size
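Two sequential reads on A549 ARE_Fluc cells exposed to compound for 18-24 h: a CellTiter-Fluor fluorescence read for viability, then a luciferase luminescence read for Nrf2/ARE activity.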
IL-2 act – activates IL-2 in a cell-based reporter assay; IL-2 activation reporter assay, cell-based qHTS; stimulated with anti-CD3/CD4/CD28 beads; in transgenic mouse T cells; activation, % (series mostly up to about 46 µM); 360,000 compounds, 0.065% hits; in the data active = activation above about 50%; inconclusive = mostly about 30% to 49%; note: 0% is about no effect
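Readout: EGFP and DsRed signals by fluorescent plate cytometry. Unstimulated transgenic mouse T cells received compound 60 min before antibody-bead stimulation, then incubated 18 h at 37 degrees C.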
Nrf2 ARE act – Nrf2 pathway activation; Potency, µM (series often up to 46.1 µM), without a hit: at the top dose activation, actives largely listed as activators; 410,000 compounds, 0.31% hits; AID 624171; AREc32 ARE-luciferase reporter (MCF7-derived line), luminescence, 24 h; note: potency is the fitted concentration of half-maximal effect; % of control where 0% means no effect; nearly all actives have a fitted effect of over 65% in size
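Luciferase luminescence (Steady-Glo, 30 min at room temperature) served as the read-out of ARE activation in AREc32 cells treated with compounds for 24 hr at 37 deg C.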
miR-21 reporter – raises the signal of a miR-21 reporter | HeLa miR-21 FLuc reporter, luciferase, 48 h | Potency, µM (doses to about 38.3 µM), for the others: at the highest dose reporter change, positive = more light | 340,000 tested, under 10 active | AID 2288; active = well fitted rising curve with a large enough effect; inconclusive = small, poorly fitted or top-dose-only effect; inactive = no such curve, though single readings can be large or run the other way;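 also: % of control where 0% means no effect; miR-21 action dims this reporter so a rising signal means less miR-21 action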
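HeLa cells stably expressing CMV-driven firefly luciferase with a downstream miR-21 binding sequence, endogenously expressing miR-21, were treated with titrations (up to about 40uM final) for 48 hours at 37 degree Celsius. Luciferase luminescence was read after lysis.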
The depositor's hits bear a star; [ ] = dose if it differs, or a comment. Shown are actives, neighbours in structure and some others; about 3.7% of the full set was active somewhere. Unless noted, calls come from the whole dose curve; as a rule, active = well fitted curve in the direction sought with a large enough effect; inconclusive = small, poorly fitted or top-dose-only effect, or another doubt; inactive = no such curve, though single readings can be large; an effect the other way counts as inactive or inconclusive.

`COc1ccc(OC)c(C2=Nn3c(nnc3C3CCCCC3)SC2)c1` gave ClpP mod -7.4%, A549 viability -17.9%, Nrf2 block 20.6µM*, IL-2 act -5.8, Nrf2 ARE act 0.5% and miR-21 reporter -5.4%.
COc1ccc(OC)c(-c2nnc3n2N=C(c2ccc(OC)c(OC4CCCC4)c2)CS3)c1 was read as A549 viability -18.0%, Nrf2 block 18.4µM*, IL-2 act -0.5 and Nrf2 ARE act -1.5%.
O=C(Nc1ccccc1)N(Cc1cccc(Cl)c1)c1ccccn1 was read as ClpP mod 1.5%, A549 viability 2.4%, Nrf2 block -0.3%, Nrf2 ARE act 3.8% and miR-21 reporter 15.4%.
Screening Cc1ccc(C)c(S(=O)(=O)N2CCC3(CC2)OCCN3S(=O)(=O)c2cccs2)c1 returned A549 viability -7.3%, Nrf2 block inconclusive, IL-2 act -3.7 and Nrf2 ARE act 0.3%.
Screening Cc1cc(F)ccc1S(=O)(=O)N1CCC2(CC1)OCCN2S(=O)(=O)c1cccs1 returned A549 viability -11.7%, Nrf2 block 11.6µM*, IL-2 act 0.0 and Nrf2 ARE act 2.0%.
For Nc1ccccc1SC(CC(=O)c1ccccc1)c1cccc([N+](=O)[O-])c1 (stereo not drawn) the results were ClpP mod -0.2%, IL-2 act -4.2 and Nrf2 ARE act 5.01µM*.
Screening C/C(=C\C(=O)c1ccncc1)Nc1ccccc1O returned ClpP mod -3.0%, A549 viability -9.5%, Nrf2 block 15.7%, IL-2 act 0.2, Nrf2 ARE act 14.1µM* and miR-21 reporter -5.2%.
COc1ccc(OC)c(N/C(C)=C/C(=O)c2ccncc2)c1 was read as ClpP mod 1.0%, A549 viability -16.0%, Nrf2 block -7.7%, IL-2 act 0.6, Nrf2 ARE act -0.3% and miR-21 reporter -3.0%.
`CCC(C)NC(=O)c1cn(CC)c2ccc(S(=O)(=O)N3CCc4ccccc4C3)cc2c1=O` (stereo not drawn) gave ClpP mod -0.9%, A549 viability -9.1%, Nrf2 block 23.1µM*, Nrf2 ARE act -0.3% and miR-21 reporter 14.2%.
`Cc1ccc(S(=O)(=O)N2[C@@H](c3ccc(Br)cc3)C(C(=O)O)=CC[C@H]2c2ccc(Cl)c(Cl)c2)cc1` gave ClpP mod 1.5%, A549 viability -16.1%, Nrf2 block 25.9µM*, IL-2 act 0.3 and Nrf2 ARE act 0.0%.
COc1ccc2c(c1)c1c(c(=O)n(-c3cccc(C)c3)c(=O)n1CC(=O)NCCC1=CCCCC1)n2C was read as ClpP mod 3.8%, A549 viability -1.6%, Nrf2 block 2.6%[9.27 µM], Nrf2 ARE act 1.3% and miR-21 reporter -0.6%.
Screening CCc1nc(N)c(C#N)c(-c2ccc(OC)c(OC)c2)c1C returned ClpP mod 12.6%, A549 viability 3.4%, Nrf2 block -0.7%, IL-2 act -3.4, Nrf2 ARE act -0.3% and miR-21 reporter -18.9%.
Screening CCCN(CC1CC1)c1nc(N)c2c(N)nc(OC)cc2c1C#N returned ClpP mod 25.1µM*, A549 viability -15.3%, Nrf2 block inconclusive, IL-2 act -0.1, Nrf2 ARE act 1.7% and miR-21 reporter -3.1%.
Screening C#CCSc1nnc(-c2sc(-c3ccccc3)nc2C)n1C returned ClpP mod 17.8µM*, A549 viability 13.4%, Nrf2 block 11.6%, IL-2 act -3.3, Nrf2 ARE act 19.1% and miR-21 reporter -27.1%.
Cc1ccc(-c2cc(C(=O)N3CCN(c4ccccc4)CC3)c3ccccc3n2)cc1C was read as ClpP mod -18.4%, A549 viability 2.0%, Nrf2 ARE act 4.8% and miR-21 reporter 24.9%.

Three entries out of the list, ordered by molar mass, low to high:
Screening Cc1ccc(C)c(S(=O)(=O)N2CCC3(CC2)OCCN3S(=O)(=O)c2cccs2)c1 returned A549 viability -7.3%, Nrf2 block inconclusive, IL-2 act -3.7 and Nrf2 ARE act 0.3%.
COc1ccc2c(c1)c1c(c(=O)n(-c3cccc(C)c3)c(=O)n1CC(=O)NCCC1=CCCCC1)n2C was read as ClpP mod 3.8%, A549 viability -1.6%, Nrf2 block 2.6%[9.27 µM], Nrf2 ARE act 1.3% and miR-21 reporter -0.6%.
`Cc1ccc(S(=O)(=O)N2[C@@H](c3ccc(Br)cc3)C(C(=O)O)=CC[C@H]2c2ccc(Cl)c(Cl)c2)cc1` gave ClpP mod 1.5%, A549 viability -16.1%, Nrf2 block 25.9µM*, IL-2 act 0.3 and Nrf2 ARE act 0.0%.

Further records
Screening Cc1ccc2c(C(=O)N3CCN(c4ccccc4)CC3)cc(-c3cccnc3)nc2c1C returned A549 viability inconclusive, Nrf2 block 20.6µM*, IL-2 act -1.3, Nrf2 ARE act 2.1% and miR-21 reporter -2.7%.
`CCOc1ccc(-n2nc(CO)c(C(=O)NCc3ccc(Cl)cc3)n2)cc1` gave ClpP mod 7.08µM*, A549 viability 0.0%, Nrf2 block inconclusive, Nrf2 ARE act 0.1% and miR-21 reporter -3.3%.
`CCc1ccc(-n2nc(CO)c(C(=O)NC(C)c3ccc(Cl)cc3)n2)cc1` (stereo not drawn) gave ClpP mod inconclusive, A549 viability -1.2%, Nrf2 block 9.9%, Nrf2 ARE act 2.4% and miR-21 reporter -1.0%.
CCc1ccc(-n2nc(CO)c(C(=O)NCCc3ccccc3)n2)cc1 was read as ClpP mod inconclusive, A549 viability 0.1%, Nrf2 block 24.4%, Nrf2 ARE act 0.0% and miR-21 reporter -1.6%.
CCOc1ccc(-n2nc(CO)c(C(=O)NCCCc3ccccc3)n2)cc1 was read as ClpP mod 12.6µM*, A549 viability 3.4%, Nrf2 block 24.1%, Nrf2 ARE act 7.3% and miR-21 reporter 2.4%.
For CCOc1ccc(-n2nc(CO)c(C(=O)NCc3cccc(OC)c3)n2)cc1 the results were ClpP mod inconclusive, A549 viability -11.3%, Nrf2 block inconclusive, Nrf2 ARE act 5.8% and miR-21 reporter -24.7%.
For CCOc1ccc(-n2nc(CO)c(C(=O)NCc3cccnc3)n2)cc1 the results were ClpP mod 6.31µM*, A549 viability 1.0%, Nrf2 block 22.4%, Nrf2 ARE act 4.7% and miR-21 reporter 11.4%.
`Cc1ccc(-n2nc(CO)c(C(=O)NCc3cccs3)n2)cc1C` gave ClpP mod 28.2µM*, A549 viability -0.1%, Nrf2 block 6.1%, Nrf2 ARE act 4.1% and miR-21 reporter 14.4%.
Screening Cc1nc2ccccc2nc1/C=C/c1ccc(N(C)C)cc1 returned ClpP mod 0.7%.
For CCCCNC(=O)c1nn(-c2ccc(CC)cc2)nc1CO the results were ClpP mod inconclusive, A549 viability 2.2%, Nrf2 block 1.2%, Nrf2 ARE act 3.9% and miR-21 reporter 3.9%.
COCCCNC(=O)c1nn(-c2ccc(C)cc2)nc1CO was read as ClpP mod 14.1µM*, A549 viability -16.9%, Nrf2 block -12.9%, Nrf2 ARE act 0.7% and miR-21 reporter -1.3%.
Screening N#Cc1cnc2c(-c3ccccc3)c(-c3ccccc3)nn2c1N returned ClpP mod 31.6µM*, A549 viability 3.0%, Nrf2 block 0.5%, IL-2 act 1.0, Nrf2 ARE act 0.4% and miR-21 reporter -1.2%.

Compound activity (PubChem BioAssay)
